Earlier results as cited in article PMC10819651 (Molecules, 2024).

Test system: MAO-B
Conditions: control of MAO-B inhibition; cited from earlier work

SMILES: C#CCN(C)[C@H](C)Cc1ccccc1 [Seligiline, selegiline]
- Inhibition Type (MAO-B): Inactivator [52]
